This note sets out measurements from PubChem BioAssay AID1789 (The Scripps Research Institute Molecular Screening Center, 2009).

“And” between values parts separate entries of the source, which are not always exact repeats. Equal entries are not always repeated. The list shows a part of the results, in another mix than the full data. The source made the active and inactive calls.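 The calls were made as follows: active = inhibition above the screen-wide mean plus 3 SD, computed separately per campaign (cut at about 16% in these data); inactive = the rest.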

The subject of this assay is Heat shock protein HSP 90 (rabbit reticulocyte lysate; luciferase refolding). Nature of the assay: HSP90 inhibitors, primary screen, cell lysate, luminescence (AID 1789).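 Also: 0% = DMSO wells and 100% = 60 µM geldanamycin wells; inhibitors lower the luminescence because luciferase stays unfolded.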 To be noted: 3 h, at 5.6 µM, active compounds read high.
As to `O=C(O)c1ccccc1[As](=O)(O)O`, the inhibition was active: 75.2%.

For the compound `CC(=O)Nc1ccc([As](=O)(O)O)cc1`, the inhibition is inactive: 0.41%.

Regarding `O=P(Nc1nc2ccc(Cl)cc2s1)(c1ccccc1)c1ccccc1`, the inhibition is inactive: 1.38%.

For the compound `Cc1ccc(NP(=O)(Oc2ccccc2F)Oc2ccccc2F)nc1`, the inhibition is inactive: 0.27%.

Take `CCOP(=O)(Nc1ccccc1)OCC`: the inhibition is inactive: -4.2% and inactive: -2.08%.

Regarding `Cc1cc(SC(NC(=O)c2ccc(F)cc2)C(Cl)(Cl)Cl)ncn1` (stereo not given), the inhibition was inactive: -2.73%.

As for `O=[N+]([O-])c1cc([N+](=O)[O-])c(CCN2CCOCC2)c([N+](=O)[O-])c1`, the inhibition was inactive: -1.22%.

In the case of `CCN(N=Nc1nonc1N)c1nonc1N`, the inhibition was inactive: -4.28%.

Take `Nc1cccc2ccc([As](=O)(O)O)cc12`: the inhibition is inactive: 5.15%.

`NC(=O)c1cc([N+](=O)[O-])cc([N+](=O)[O-])c1N`: the inhibition was inactive: -0.7%.

On to `Cc1ccc(N/C(=N/P(=O)(N2CCOCC2)N2CCOCC2)N2CCOCC2)cc1`, for which the inhibition is inactive: 0.52%.

On to `Cc1ccc(OP(=O)(Nc2nccs2)Oc2ccc(C)cc2)cc1`, for which the inhibition is inactive: 2.47%.

Turning to `COc1ccccc1OP(=O)(Nc1ccc(C)cn1)Oc1ccccc1OC`, the inhibition is inactive: 2.16%.

Turning to `Clc1ccc(Cl)c(NC2=NCC(CBr)S2)c1` (stereo not given), the inhibition was inactive: -1.66%.

As to `CN1CCCC(OC(=O)C(c2ccccc2)c2ccccc2)C1` (stereo not given), the inhibition was inactive: -2.72%.

Consider `CC(C)CC(=O)NC(Sc1ccc(Cl)cc1)C(Cl)(Cl)Cl` (stereo not given), for which the inhibition is inactive: 0.74%.

Consider `Nc1cc(N)c2nonc2c1[N+](=O)[O-]`, for which the inhibition was inactive: -7%.

Regarding `Cc1c2non([O-])c-2c(C)[n+](=O)[n+]1[O-]`, the inhibition was inactive: 6.02%.

On to `O=C(NC(Sc1ccncn1)C(Cl)(Cl)Cl)c1ccccc1` (stereo not given), for which the inhibition is inactive: 1.33%.

Take `Oc1ccccc1CNc1ccccn1`: the inhibition was inactive: 3.52%.

For `COc1ccc(C2=NCC(CBr)S2)cc1` (stereo not given), the inhibition is inactive: -3%.

For the compound `CC(=O)N1C2C3N(C(C)=O)C1C1N(C(C)=O)C(C(N1C(C)=O)N3C(C)=O)N2C(C)=O`, the inhibition is inactive: -1%.

On to `O=[N+]([O-])c1cccc2n[nH]nc12`, for which the inhibition is inactive: -1.29%.

With `O=[N+]([O-])c1cc([N+](=O)[O-])c(CCNc2ccccc2)c([N+](=O)[O-])c1`, the inhibition is inactive: 6.65%.

`CCc1nc2c(n1)c1c(non1O)c1c2no[n+]1[O-]`: the inhibition was inactive: 2.63%.

Take `Cc1ccc(NP(=O)(Oc2ccccc2)Oc2ccccc2)nc1`: the inhibition is inactive: 2.54%.

For `C[N+]1=C2C=CC=CC=C2SC12C([N+](=O)[O-])=CC([N+](=O)[O-])=C[C-]2[N+](=O)[O-]` (stereo not given), the inhibition is inactive: 9.62%.

Turning to `Nc1ccc([As](=O)(O)c2ccc(N)cc2)cc1`, the inhibition is inactive: 5.56%.

For `CCN(/C(=N/P(=O)(N1CCOCC1)N1CCOCC1)N1CCOCC1)c1ccc(OC)cc1`, the inhibition is inactive: 4.02%.

`CN(C)C(=O)OCCc1n(C)cc[n+]1C`: the inhibition is inactive: -1.08%.

`CC(C)=N/N=C(\N)N[N+](=O)[O-]`: the inhibition is inactive: -0.76%.

`CC1CCN(C(=O)Oc2c(Cl)cc(Cl)c3cccnc23)CC1`: the inhibition is inactive: 3.19%.

Take `O=C(Nc1cc([As](=O)(O)O)ccc1O)c1ccccc1`: the inhibition is inactive: -0.73%.

Turning to `CC(C)(C)C(=O)NC(Sc1ccncn1)C(Cl)(Cl)Cl` (stereo not given), the inhibition was inactive: 3.09%.

Take `O=[N+]([O-])c1ncn(CCn2ncnc2[N+](=O)[O-])n1`: the inhibition was inactive: -3.98%.

For the compound `O=[N+]([O-])c1cccc(NC2=NCC(CBr)S2)c1` (stereo not given), the inhibition was inactive: 3.97%.

With `O=C(O)CNc1ccc([As](=O)(O)O)cc1`, the inhibition is inactive: -2.5%.

Consider `CN(C)C1(CNC(=O)c2ccc(Cl)c(S(N)(=O)=O)c2)CCCCC1`, for which the inhibition was inactive: 1.7%.

Consider `O=P(Nc1ccccn1)(c1ccc(Br)cc1)c1ccc(Br)cc1`, for which the inhibition was inactive: 4.73%.

As to `O=P(Nc1nc2ccccc2s1)(c1ccccc1)c1ccccc1`, the inhibition was inactive: 1.85%.

As for `O=[N+]([O-])c1ncn(CCn2cnc([N+](=O)[O-])n2)n1`, the inhibition is inactive: -2.8%.

`CC(=O)NC(SC(=S)N(C)C)C(Cl)(Cl)Cl` (stereo not given): the inhibition is inactive: 0.27%.

As to `O=[N+]([O-])c1ccc(O)c(/C=N/Nc2ccc([N+](=O)[O-])cc2[N+](=O)[O-])c1`, the inhibition is inactive: -5.95%.

For `O=[As](O)(c1ccccc1)c1ccc(O)cc1`, the inhibition is inactive: 4.26%.

Turning to `Nc1ccc([As](=O)(O)c2ccc([N+](=O)[O-])cc2)cc1`, the inhibition is inactive: -2.31%.

With `C(Cc1nn[nH]n1)Cc1nn[nH]n1`, the inhibition is inactive: -3.51%.

For the compound `O=C(OC1CN2CCC1CC2)c1cccc(Cl)c1` (stereo not given), the inhibition was inactive: 4.53%.

Consider `O=P(Nc1nccs1)(c1ccccc1)c1ccccc1`, for which the inhibition is inactive: 10.1%.

In the case of `CC(C)C(=O)NC(Sc1ccccc1)C(Cl)(Cl)Cl` (stereo not given), the inhibition is inactive: -5.49%.

In the case of `c1nnnn1CCn1cnnn1`, the inhibition is inactive: -3.54%.

`CCOc1ccc(C2=NCC(CBr)S2)cc1` (stereo not given): the inhibition was inactive: 3.44%.

Consider `O=P1(Nc2nc3ccc(Cl)cc3s2)COc2ccccc2O1` (stereo not given), for which the inhibition was inactive: 1.48%.

Consider `CC(C)(C)C(=O)NC(Sc1ccccc1)C(Cl)(Cl)Cl` (stereo not given), for which the inhibition was inactive: -3.94%.

In the case of `CC(=O)c1ccc(N2CC2c2ccncc2)cc1` (stereo not given), the inhibition was inactive: 0.45%.

As to `CC(=O)Nc1ccc(Oc2c([N+](=O)[O-])cc([N+](=O)[O-])cc2[N+](=O)[O-])cc1`, the inhibition was inactive: 0.9%.

Take `CC(=O)Nc1ccc([As](=O)(O)O)c(O)c1`: the inhibition is inactive: 0.31%.

With `O=C(NC1CCS(=O)(=O)C1)NP(=S)(Oc1ccccc1)Oc1ccccc1` (stereo not given), the inhibition was inactive: 0.26%.

Regarding `CCNC(=S)/N=C(\N)N[N+](=O)[O-]`, the inhibition is inactive: -1.83%.

For the compound `CCOC(=O)NC(Sc1ccccc1)C(Cl)(Cl)Cl` (stereo not given), the inhibition is inactive: -3%.

With `Cc1ccc(NP(=O)(Oc2cccc(C)c2)Oc2cccc(C)c2)nc1`, the inhibition is inactive: 1.12%.

Turning to `c1ccc(-c2nn[nH]n2)c(-c2nn[nH]n2)c1`, the inhibition is inactive: 4.66%.

For `Cc1ccc(OP(=O)(Nc2ccccn2)Oc2ccc(C)cc2)cc1`, the inhibition is inactive: -0.47%.

Turning to `CC(=O)NC(SC(=S)N(CC(C)C)CC(C)C)C(Cl)(Cl)Cl` (stereo not given), the inhibition was active: 19.9%.

Regarding `COC(=O)c1cc2c(s1)N=C(c1ccccc1)N(C)P2(=O)N1CCOCC1` (stereo not given), the inhibition is inactive: -1.82%.

For `CCC(=O)N1C2C3N(C(=O)CC)C1C1N(C(=O)CC)C(C(N1C(=O)CC)N3C(=O)CC)N2C(=O)CC`, the inhibition was inactive: 1.42%.
